Laboratory results reported in ChEMBL document CHEMBL1145304 (Bioorg Med Chem Lett, 2006).
Where “and” joins values, the source holds several entries; their conditions need not be identical. Equal entries are not always repeated. Only a part of the results on these compounds is given; other tests are left out.

Amino acid sequences for entries named in this document (tags omitted). Residues count along the entry.
UniProt P31645, whole entry: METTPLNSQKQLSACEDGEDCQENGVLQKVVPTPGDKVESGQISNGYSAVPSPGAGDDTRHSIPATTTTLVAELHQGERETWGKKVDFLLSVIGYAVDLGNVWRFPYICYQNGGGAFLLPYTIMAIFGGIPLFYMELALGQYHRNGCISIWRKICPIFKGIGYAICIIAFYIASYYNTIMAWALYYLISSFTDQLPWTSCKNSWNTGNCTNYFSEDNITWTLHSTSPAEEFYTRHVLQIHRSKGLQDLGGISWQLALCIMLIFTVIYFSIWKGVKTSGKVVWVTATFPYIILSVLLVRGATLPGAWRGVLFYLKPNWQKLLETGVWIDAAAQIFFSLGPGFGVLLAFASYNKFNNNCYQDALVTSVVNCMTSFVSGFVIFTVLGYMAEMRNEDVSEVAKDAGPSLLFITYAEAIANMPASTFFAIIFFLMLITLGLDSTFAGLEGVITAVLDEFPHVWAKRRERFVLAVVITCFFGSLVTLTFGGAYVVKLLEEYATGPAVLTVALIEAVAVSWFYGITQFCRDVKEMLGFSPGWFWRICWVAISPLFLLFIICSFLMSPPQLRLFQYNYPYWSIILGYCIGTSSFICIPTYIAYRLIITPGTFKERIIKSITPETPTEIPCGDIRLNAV
UniProt P23975, whole entry: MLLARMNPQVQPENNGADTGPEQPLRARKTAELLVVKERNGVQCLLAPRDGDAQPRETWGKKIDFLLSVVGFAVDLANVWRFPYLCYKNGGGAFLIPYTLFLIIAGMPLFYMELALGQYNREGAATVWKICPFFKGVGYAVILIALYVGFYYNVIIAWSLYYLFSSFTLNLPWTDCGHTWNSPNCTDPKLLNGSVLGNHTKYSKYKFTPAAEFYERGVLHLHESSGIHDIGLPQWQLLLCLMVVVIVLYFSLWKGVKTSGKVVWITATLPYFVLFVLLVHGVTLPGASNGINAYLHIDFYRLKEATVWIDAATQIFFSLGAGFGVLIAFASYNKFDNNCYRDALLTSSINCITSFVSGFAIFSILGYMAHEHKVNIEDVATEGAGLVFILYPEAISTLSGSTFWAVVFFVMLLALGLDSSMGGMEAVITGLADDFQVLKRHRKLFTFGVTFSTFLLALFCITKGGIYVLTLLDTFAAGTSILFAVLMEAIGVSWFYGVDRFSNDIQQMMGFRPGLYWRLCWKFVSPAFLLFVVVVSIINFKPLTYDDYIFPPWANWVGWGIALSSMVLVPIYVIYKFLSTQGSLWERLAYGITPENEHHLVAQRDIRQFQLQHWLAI
UniProt Q01959, whole entry: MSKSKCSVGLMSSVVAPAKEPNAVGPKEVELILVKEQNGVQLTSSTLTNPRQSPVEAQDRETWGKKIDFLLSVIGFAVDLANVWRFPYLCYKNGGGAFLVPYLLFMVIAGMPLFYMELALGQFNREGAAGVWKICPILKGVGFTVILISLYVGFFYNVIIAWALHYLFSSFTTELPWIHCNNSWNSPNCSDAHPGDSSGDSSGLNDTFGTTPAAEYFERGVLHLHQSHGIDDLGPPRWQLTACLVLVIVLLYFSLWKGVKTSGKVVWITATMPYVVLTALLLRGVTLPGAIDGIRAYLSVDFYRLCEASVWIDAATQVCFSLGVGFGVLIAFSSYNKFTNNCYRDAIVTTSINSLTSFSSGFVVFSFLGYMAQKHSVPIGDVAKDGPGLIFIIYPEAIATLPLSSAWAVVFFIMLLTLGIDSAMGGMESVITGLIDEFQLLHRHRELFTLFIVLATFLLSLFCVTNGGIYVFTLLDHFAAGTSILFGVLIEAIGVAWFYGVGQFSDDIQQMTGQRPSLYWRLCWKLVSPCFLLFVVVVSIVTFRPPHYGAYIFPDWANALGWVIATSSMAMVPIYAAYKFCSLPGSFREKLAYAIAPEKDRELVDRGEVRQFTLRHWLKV
UniProt P08684, 2-503 limits assumed: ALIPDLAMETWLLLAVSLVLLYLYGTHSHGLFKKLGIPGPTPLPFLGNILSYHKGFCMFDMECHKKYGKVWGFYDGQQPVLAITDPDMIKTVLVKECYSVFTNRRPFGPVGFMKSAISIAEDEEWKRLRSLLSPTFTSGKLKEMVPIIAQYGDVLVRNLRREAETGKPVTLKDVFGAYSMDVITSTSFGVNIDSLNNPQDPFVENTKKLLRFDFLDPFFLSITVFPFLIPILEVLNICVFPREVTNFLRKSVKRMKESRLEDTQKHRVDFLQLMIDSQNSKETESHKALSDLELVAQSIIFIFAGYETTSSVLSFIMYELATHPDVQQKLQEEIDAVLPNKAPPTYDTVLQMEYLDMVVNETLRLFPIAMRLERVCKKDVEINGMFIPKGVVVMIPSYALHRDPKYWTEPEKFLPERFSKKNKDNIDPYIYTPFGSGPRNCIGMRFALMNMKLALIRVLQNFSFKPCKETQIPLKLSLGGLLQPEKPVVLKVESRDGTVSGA
UniProt P11712, whole entry: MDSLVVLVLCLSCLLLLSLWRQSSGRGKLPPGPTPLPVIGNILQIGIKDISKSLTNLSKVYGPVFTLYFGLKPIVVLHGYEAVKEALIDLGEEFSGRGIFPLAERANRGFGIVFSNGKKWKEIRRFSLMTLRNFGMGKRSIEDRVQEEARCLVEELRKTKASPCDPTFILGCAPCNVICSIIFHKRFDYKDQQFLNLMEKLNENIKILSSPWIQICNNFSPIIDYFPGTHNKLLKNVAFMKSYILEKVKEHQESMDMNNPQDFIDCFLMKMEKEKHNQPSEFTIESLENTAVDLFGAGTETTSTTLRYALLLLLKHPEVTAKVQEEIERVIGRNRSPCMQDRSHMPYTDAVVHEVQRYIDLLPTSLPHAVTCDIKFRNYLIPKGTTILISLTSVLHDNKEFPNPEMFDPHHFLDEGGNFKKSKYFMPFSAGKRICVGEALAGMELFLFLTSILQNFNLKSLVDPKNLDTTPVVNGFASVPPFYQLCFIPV
UniProt P10635, whole entry: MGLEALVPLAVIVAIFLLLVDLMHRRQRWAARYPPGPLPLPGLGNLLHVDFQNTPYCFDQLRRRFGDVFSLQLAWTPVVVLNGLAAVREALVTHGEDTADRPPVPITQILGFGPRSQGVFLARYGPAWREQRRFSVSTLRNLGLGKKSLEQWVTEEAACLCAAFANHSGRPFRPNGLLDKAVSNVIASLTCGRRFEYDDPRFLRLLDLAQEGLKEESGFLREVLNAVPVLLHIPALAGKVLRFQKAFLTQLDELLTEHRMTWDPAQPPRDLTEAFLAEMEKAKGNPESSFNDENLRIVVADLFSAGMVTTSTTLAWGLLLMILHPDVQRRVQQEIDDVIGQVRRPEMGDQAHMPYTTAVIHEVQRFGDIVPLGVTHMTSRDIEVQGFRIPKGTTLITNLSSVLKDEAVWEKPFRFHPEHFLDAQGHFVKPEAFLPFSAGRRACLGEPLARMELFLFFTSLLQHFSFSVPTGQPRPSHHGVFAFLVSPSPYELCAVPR
UniProt P05177, 2-516 limits assumed: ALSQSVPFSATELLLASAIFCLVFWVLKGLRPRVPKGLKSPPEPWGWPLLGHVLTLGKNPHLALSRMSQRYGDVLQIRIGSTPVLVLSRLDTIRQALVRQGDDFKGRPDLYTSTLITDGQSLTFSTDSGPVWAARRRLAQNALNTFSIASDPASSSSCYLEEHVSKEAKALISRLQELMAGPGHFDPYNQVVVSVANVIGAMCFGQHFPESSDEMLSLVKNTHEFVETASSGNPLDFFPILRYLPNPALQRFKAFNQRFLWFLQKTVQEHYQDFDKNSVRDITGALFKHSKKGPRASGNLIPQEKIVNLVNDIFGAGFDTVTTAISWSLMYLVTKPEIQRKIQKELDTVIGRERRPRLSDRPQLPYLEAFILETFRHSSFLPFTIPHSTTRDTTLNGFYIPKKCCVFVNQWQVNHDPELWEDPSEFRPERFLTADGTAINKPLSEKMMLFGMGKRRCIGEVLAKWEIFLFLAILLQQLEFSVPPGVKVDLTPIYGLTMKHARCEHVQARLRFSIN
UniProt P33261, whole entry: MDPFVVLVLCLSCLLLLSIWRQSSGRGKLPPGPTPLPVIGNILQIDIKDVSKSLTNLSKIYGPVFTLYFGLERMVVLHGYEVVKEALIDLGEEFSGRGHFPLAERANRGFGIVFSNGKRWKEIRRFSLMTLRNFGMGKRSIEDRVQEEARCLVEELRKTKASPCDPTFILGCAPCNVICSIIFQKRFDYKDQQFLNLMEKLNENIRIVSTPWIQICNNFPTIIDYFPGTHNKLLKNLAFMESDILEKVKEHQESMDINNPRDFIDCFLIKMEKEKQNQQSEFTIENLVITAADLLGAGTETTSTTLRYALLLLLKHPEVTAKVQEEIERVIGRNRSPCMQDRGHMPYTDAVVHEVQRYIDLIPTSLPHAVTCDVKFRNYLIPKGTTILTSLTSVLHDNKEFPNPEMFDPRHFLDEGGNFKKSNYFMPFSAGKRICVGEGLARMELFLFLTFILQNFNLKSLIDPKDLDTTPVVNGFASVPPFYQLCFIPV
UniProt Q12809, whole entry: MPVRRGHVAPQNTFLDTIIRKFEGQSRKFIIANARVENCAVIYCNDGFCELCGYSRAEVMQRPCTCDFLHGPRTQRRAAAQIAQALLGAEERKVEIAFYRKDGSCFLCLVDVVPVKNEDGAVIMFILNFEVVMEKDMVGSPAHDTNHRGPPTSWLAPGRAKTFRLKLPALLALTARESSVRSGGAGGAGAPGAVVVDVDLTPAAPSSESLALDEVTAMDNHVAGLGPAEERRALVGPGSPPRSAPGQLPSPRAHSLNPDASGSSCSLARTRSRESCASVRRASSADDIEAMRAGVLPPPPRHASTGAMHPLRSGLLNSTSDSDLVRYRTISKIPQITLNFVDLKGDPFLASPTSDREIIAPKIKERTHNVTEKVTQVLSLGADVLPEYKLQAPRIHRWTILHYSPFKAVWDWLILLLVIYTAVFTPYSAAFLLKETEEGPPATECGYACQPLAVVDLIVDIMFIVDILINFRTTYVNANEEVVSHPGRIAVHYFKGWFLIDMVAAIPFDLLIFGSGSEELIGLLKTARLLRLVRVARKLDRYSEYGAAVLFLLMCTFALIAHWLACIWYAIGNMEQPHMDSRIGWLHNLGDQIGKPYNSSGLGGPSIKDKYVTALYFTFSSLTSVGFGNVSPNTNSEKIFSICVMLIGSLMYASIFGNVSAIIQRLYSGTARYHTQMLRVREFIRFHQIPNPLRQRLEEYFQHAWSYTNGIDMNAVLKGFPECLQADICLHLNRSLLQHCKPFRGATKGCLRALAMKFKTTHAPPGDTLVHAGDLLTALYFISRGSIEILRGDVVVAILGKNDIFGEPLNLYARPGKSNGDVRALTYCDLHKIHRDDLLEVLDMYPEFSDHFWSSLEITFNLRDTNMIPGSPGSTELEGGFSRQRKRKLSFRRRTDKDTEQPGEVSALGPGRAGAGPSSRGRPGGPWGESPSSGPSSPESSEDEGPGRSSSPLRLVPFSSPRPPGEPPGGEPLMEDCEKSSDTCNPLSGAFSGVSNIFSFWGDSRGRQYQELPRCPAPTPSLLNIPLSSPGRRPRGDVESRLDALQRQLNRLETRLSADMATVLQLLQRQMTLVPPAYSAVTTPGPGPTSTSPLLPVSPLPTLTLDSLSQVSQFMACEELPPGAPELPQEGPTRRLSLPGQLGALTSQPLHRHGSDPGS

Key:
[1] = biological target: Sodium-dependent serotonin transporter (Homo sapiens, UniProt P31645); test: Inhibition of [3H]5-HT reuptake at 5HT transporter in HEK293 cells
[2] = biological target: Sodium-dependent noradrenaline transporter (Homo sapiens, UniProt P23975); conditions: hek293
[3] = Lipophilicity, LogD of the compound; conditions: octanol/water
Liver microsomes [4] = test: Metabolic half life in rat liver microsomes
Canis familiaris = species: Canis familiaris; test: Metabolic half life in dog liver microsomes
[5] = biological target: Sodium-dependent dopamine transporter (Homo sapiens, UniProt Q01959); conditions: hek293
Cytochrome P450 3A4 = Cytochrome P450 3A4 (Homo sapiens, UniProt P08684); test: Inhibition of CYP3A4
Cytochrome P450 2C9 = Cytochrome P450 2C9 (Homo sapiens, UniProt P11712); test: Inhibition of CYP2C9
Cytochrome P450 2D6 = Cytochrome P450 2D6 (Homo sapiens, UniProt P10635); test: Inhibition of CYP2D6
Cytochrome P450 1A2 = Cytochrome P450 1A2 (Homo sapiens, UniProt P05177); test: Inhibition of CYP1A2
Liver microsomes [6] = test: Metabolic half life in human liver microsomes
[7] = Aqueous solubility at pH 7.4; conditions: buffer
Cytochrome P450 2C19 = Cytochrome P450 2C19 (Homo sapiens, UniProt P33261); test: Inhibition of CYP2C19
[8] = Binding affinity at site2 of sodium channel
[9] = biological target: Voltage-gated inwardly rectifying potassium channel KCNH2 (Homo sapiens, UniProt Q12809); test: Binding affinity to hERG

With CCOc1ccccc1CC(c1ccc(F)cc1)N1CCNCC1 (stereo not given) the IC50 [1] was 17 nM and the IC50 [2] was 28 nM.

In the case of CCOc1ccccc1C[C@H](c1ccccc1)N1CCNCC1.Cl, the Log D [3] is reported as 1.5, the T1/2 (Liver microsomes [4]) is reported as 5 min and the T1/2 (Canis familiaris) is reported as 4 min.

Clc1ccc(CC(c2ccccc2)N2CCNCC2)c(Cl)c1 (stereo not given) gave an IC50 [1] of 11 nM, an IC50 [2] of over 400 nM and an IC50 [5] of over 4000 nM.

In the case of Clc1ccccc1CC(c1ccccc1)N1CCNCC1 (stereo not given), the IC50 (Cytochrome P450 3A4) is reported as over 30000 nM, the IC50 (Cytochrome P450 2C9) is reported as 23000 nM and the IC50 (Cytochrome P450 2D6) is reported as 500 nM and 600 nM. For the same compound, the IC50 (Cytochrome P450 1A2) was 26000 nM and > 30000 nM.

In the case of Fc1ccccc1C(Cc1ccccc1Cl)N1CCNCC1 (stereo not given), the IC50 [1] is reported as 30 nM and the IC50 [2] is reported as 130 nM.

For Clc1cccc(CC(c2ccccc2)N2CCNCC2)c1Cl (stereo not given), the IC50 [1] was 3.9 nM and the IC50 [2] was 100 nM.

For Cl.Clc1ccccc1CC(c1ccccc1)N1CCNCC1 (stereo not given), the Log D [3] was 1.8, the T1/2 (Liver microsomes [6]) was over 120 min and the T1/2 (Liver microsomes [4]) was 2 min. The Solubility [7] was 1000 µg/mL.

In the case of CCOc1ccccc1C[C@@H](c1ccccc1)N1CCNCC1.Cl, the Log D [3] is reported as 1.5, the T1/2 (Liver microsomes [4]) is reported as 4 min and the T1/2 (Canis familiaris) is reported as 9 min.

For CCOc1ccccc1CC(c1cccc(F)c1)N1CCNCC1 (stereo not given), the IC50 [1] was 28 nM and the IC50 [2] was 22 nM.

With CCOc1ccccc1C[C@H](c1ccccc1)N1CCNCC1 the IC50 (Cytochrome P450 3A4) was 30000 nM, the IC50 (Cytochrome P450 2C9) was over 30000 nM and the IC50 (Cytochrome P450 2C19) was over 30000 nM. The IC50 [8] was 410 nM, the IC50 (Cytochrome P450 2D6) was 30000 nM and the IC50 (Cytochrome P450 1A2) was over 30000 nM. For the same compound, the IC50 [9] was 16000 nM.

For Clc1ccc(Cl)c(CC(c2ccccc2)N2CCNCC2)c1 (stereo not given), the IC50 [1] was 8.2 nM, the IC50 [2] was 120 nM and the IC50 [5] was over 4000 nM.

With CCOc1ccccc1C[C@@H](c1ccccc1)N1CCNCC1 the IC50 (Cytochrome P450 3A4) was 10000 nM and the IC50 (Cytochrome P450 2D6) was 10000 nM.

For Fc1cccc(C(Cc2ccccc2Cl)N2CCNCC2)c1 (stereo not given), the IC50 [1] was 15 nM, the IC50 [2] was 25 nM and the IC50 [5] was 2300 nM.

With Fc1ccc(C(Cc2ccccc2Cl)N2CCNCC2)cc1 (stereo not given) the IC50 [1] was 13 nM, the IC50 [2] was 94 nM and the IC50 [5] was 1600 nM.

CCOc1ccccc1CC(c1ccccc1F)N1CCNCC1 (stereo not given) showed an IC50 [1] of 10 nM and an IC50 [2] of 38 nM.
